Among the data in PubChem BioAssay AID807 (SRMLSC, 2007) are viability increase values, retold here.

Molecules are shown by their SMILES. The list shows a part of the results, in another mix than the full data. Activity calls are given as the source filed them.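 Rule for the calls: active = viability increase at or above a cutoff of the median across tested compounds plus 3 SD (cut at about 8.5% in these data, passing the limit was not always enough); inconclusive = some gains above the cutoff, reason not given; inactive = the rest.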

The nature of this assay: viability gain of MRP-1-high H69AR cells under doxorubicin, pilot screen, MRP-1 activator project, CellTiter-Glo, duplicate (AID 807).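 Note: compound pretreatment 18-22 h then 72 h combined with doxorubicin; 0% = doxorubicin alone and 100% = vehicle without doxorubicin.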 Conditions: H69AR viability with doxorubicin, CellTiter-Glo luminescence; at 10 µM; stronger effect = higher value.
Take `COC(=O)c1cc2c(s1)N=C(c1ccccc1)N(C)P2(=O)N1CCOCC1` (stereo unspecified): the viability increase was inactive: -0.93%.
